Assay results reported in article PMC3811480, “The R Enantiomer of the Antitubercular Drug PA-824 as a Potential Oral Treatment for Visceral Leishmaniasis” (Antimicrobial Agents and Chemotherapy, 2013).

What was measured:
[1] = test system: Leishmania donovani LdBOB promastigotes; experiment: In vitro drug sensitivity assay, L. donovani promastigotes (72 h, resazurin); assay type: cell-based; conditions: promastigotes and intracellular amastigotes
[2] = test system: L. donovani intracellular amastigotes in mouse peritoneal macrophages; experiment: In-macrophage drug sensitivity assay; assay type: cell-based, Leishmania donovani; conditions: leishmania-infected macrophages
[3] = test system: Mycobacterium tuberculosis; parameters: method as in PMID 22023140; conditions: M. tuberculosis, S versus R enantiomer; cited from earlier work

Structure (SMILES) | fold more potent inhibitor of L. donovani growth in vitro than the S enantiomer [1] [fold] | fold more active/potent than (S)-PA-824 in the intramacrophage assay [2] | fold more active than the R enantiomer [3] [fold]
O=[N+]([O-])c1cn2c(n1)OC[C@H](OCc1ccc(OC(F)(F)F)cc1)C2 [(R)-PA-824] | ~5 | 6 fold and 5 fold | –
O=[N+]([O-])c1cn2c(n1)OC[C@@H](OCc1ccc(OC(F)(F)F)cc1)C2 [(S)-PA-824, reference compound] | – | – | > 100

“And” between values parts separate entries of the source, which are not always exact repeats. Equal entries are not always repeated.
